Data reported in patent US20140163083A1, “NOVEL CRYSTALLINE SALTS OF ASENAPINE” (SANDOZ AG, priority 2011, published 2014).

Conditions: water, 25° C., 48 hours suspension equilibration, filtered, HPLC

aqueous solubility calculated as free base: 10.7 mg/mL
Substance: Asenapine succinate form X
